Protein sequences, listed by entry. Tags and fused reporters are not part of them.
UniProt P00352, whole entry: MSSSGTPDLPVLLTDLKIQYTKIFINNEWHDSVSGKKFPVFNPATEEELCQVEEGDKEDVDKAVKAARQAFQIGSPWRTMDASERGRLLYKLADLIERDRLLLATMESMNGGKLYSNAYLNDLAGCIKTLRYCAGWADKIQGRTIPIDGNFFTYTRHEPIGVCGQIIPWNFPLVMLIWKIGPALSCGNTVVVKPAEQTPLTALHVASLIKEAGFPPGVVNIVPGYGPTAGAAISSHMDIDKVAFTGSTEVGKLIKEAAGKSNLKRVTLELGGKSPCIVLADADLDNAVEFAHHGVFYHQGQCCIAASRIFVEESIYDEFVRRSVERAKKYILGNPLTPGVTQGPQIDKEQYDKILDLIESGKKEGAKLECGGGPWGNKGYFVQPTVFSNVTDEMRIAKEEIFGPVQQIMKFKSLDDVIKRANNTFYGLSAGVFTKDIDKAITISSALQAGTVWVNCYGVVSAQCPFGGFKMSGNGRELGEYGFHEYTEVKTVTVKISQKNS
UniProt O00519, whole entry: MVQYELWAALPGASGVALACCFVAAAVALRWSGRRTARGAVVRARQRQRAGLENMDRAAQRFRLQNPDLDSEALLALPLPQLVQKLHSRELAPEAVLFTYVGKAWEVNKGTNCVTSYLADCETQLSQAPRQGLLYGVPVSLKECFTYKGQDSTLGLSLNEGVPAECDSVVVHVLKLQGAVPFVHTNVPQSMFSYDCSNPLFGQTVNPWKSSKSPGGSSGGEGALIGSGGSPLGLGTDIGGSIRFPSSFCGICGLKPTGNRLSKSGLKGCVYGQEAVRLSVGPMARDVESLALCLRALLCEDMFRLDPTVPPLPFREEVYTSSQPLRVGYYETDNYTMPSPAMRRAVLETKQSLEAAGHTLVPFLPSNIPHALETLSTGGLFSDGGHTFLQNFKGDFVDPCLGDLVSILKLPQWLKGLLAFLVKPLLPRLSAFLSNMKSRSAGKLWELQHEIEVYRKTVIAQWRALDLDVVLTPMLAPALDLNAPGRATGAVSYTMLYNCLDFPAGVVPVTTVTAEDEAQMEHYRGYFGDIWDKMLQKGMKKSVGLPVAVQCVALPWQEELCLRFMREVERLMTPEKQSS
UniProt Q99685, whole entry: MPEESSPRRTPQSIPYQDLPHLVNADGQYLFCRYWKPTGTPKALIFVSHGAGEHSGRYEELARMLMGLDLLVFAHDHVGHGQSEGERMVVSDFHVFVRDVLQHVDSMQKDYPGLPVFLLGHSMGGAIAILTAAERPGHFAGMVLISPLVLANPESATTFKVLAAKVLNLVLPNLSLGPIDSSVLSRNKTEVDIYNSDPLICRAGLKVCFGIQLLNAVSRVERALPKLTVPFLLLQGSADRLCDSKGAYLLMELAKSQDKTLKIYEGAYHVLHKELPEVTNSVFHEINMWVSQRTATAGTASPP

In US20250145565A1 (BATTERJEE MEDICAL COLLEGE, priority 2021, published 2025):

How the values were obtained:
Type in all cases: biochemical
[1] = target: ALDH1a1 (Homo sapiens (Human), UniProt P00352); test: ALDH assay (diaphorase/resazurin), ALDH1a1 inhibition
[2] = target: human FAAH (hFAAH) (Homo sapiens (Human), UniProt O00519); test: FAAH enzyme inhibition assay (Cayman kit, AMC-arachidonoyl amide)
[3] = target: human MAGL (hMAGL) (Homo sapiens (Human), UniProt Q99685); test: MAGL enzyme inhibition assay (4-nitrophenylacetate); conditions: relative to disulfiram / unsubstituted analog

| SMILES | activity against ALDH1a1 (in words) [1] | FAAH inhibitory activity (in words) [2] | IC50 ([1]; read-out: IC50 (μM) ± SE (ALDH1a1), Table IA, mean of at least two independent experiments) | decrease in inhibitory activity against MAGL [3] |
| --- | --- | --- | --- | --- |
| S=C(SSC(=S)N(Cc1ccccc1)Cc1ccccc1)N(Cc1ccccc1)Cc1ccccc1 | complete loss of activity | complete loss of FAAH inhibitory activity |  |  |
| S=C(SSC(=S)N1CCCCC1)N1CCCCC1 |  |  | 0.05 µM |  |
| CCCCN(CCCC)C(=S)SSC(=S)N(CCCC)CCCC |  | no inhibition |  | up to 15 fold |
